From patent US20260248894A1, “COMBINATION THERAPY FOR PRETERM INFANTS” (Oak Hill Bio Ltd, priority 2022, published 2026)

Amino acid sequences for entries named in this document (tags omitted). Residues count along the entry.
UniProt P05019, 49-118 limits assumed, stated change not applied: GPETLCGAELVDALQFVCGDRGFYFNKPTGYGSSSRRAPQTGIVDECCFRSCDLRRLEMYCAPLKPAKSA
UniProt P17936, 28-291, stated change not applied: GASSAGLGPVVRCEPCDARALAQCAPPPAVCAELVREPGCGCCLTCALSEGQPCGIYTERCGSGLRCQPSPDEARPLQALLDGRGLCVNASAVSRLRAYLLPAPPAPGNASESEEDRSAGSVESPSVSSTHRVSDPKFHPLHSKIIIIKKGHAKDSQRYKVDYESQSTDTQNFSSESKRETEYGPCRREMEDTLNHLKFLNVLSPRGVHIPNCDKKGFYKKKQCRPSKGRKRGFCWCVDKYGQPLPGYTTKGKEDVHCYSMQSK

Target: T1, rhIGF-1/rhIGFBP-3 drug product (Homo sapiens, UniProt P05019+P17936, DEL119-195)
T1 construct: purchased Takeda, Lexington, MA, USA
Assay: In vitro physical compatibility of test medications mixed with rhIGF-1/rhIGFBP-3 (visual observation, OD320, pH, osmolality)
Format: physicochemical
Set-up: key to Physical compatibility: Yes: Test medications were considered physically compatible with rhIGF-1/rhIGFBP-3 if there was no observed change in color, precipitation, turbidity, or gas evolution, or if there was no clinically relevant change in osmolality or pH

physical compatibility with rhIGF-1/rhIGFBP-3 (conditions and doses tested): physical compatibility was established | osmolality decrease (highest dose of 5 mg/kg/30 min): Osmolality decrease of ~74% was observed | Physical compatibility (mixed with rhIGF-1/rhIGFBP-3 drug product at representative clinical doses, room temperature): Yes
Substance: Gentamicin
